Assay: Solubility of resins @ 37° C.
Assay type: physicochemical
Conditions: Table II

HEMA-based Monoimidazoliumbromide-dimethacrylate Resin [Example 4]
Solubility @ 37° C. in EtOH (EtOH): soluble
Solubility @ 37° C. in water/ethanol (50:50, w/w %) (water/ethanol 50:50): soluble
